US5280119A, “Heterocyclic amine-boranes, and method of inhibiting DNA topoisomerase activity and/or combatting inflammation, hyperlipidemia, and/or neoplasia using amine-borane compounds” (dated 1994)
≈ marks a conversion by molar mass, not a printed value.

Columns and labels:
[1] = Hypolipidemic screen in normal mice; details: CF1 male mice, IP; for Serum Cholesterol Day 9 / Serum Cholesterol Day 16 / Serum Triglycerides Day 16: N = 6
[2] = Hypolipidemic screen in normal rats (serum lipids, body weight, food); details: Sprague Dawley male rats, 8 mg/kd/day orally (clofibrate 150 mg/kg/day)
[3] = test system: P388 lymphocytic leukemia; assay: Cytotoxicity, P388 lymphocytic leukemia; details: for ED50 Cytotoxicity, P388 Lymphocytic Leukemia: p388 cells
glioma EH 118 MG = assay: Cytotoxicity, glioma EH 118 MG; details: eh 118 mg cells
[4] = test system: human Tmolt3 acute lymphoblastic T cell leukemia; assay: Cytotoxicity, Tmolt3; details: trypan blue exclusion
[5] = test system: KB epidermoid nasopharynx; assay: Cytotoxicity, KB epidermoid nasopharynx; details: for ED50 Cytotoxicity, Human KB: kb cells
[6] = test system: HeLa-S^3 suspended cervical carcinoma; assay: Cytotoxicity, HeLa-S3; details: hela-s3 cells
osteosarcoma TE418 = assay: Cytotoxicity, osteosarcoma TE418; details: for ED50 Cytotoxicity, Human Osteo-Sarcoma: te418 cells
[7] = test system: murine L1210 lymphoid leukemia; assay: Cytotoxicity, L1210 lymphoid leukemia; details: trypan blue exclusion
Lewis lung carcinoma = assay: In vivo Lewis lung carcinoma activity; details: 8 mg/kg/day I.P.
[8] = test system: lung bronchogenic MB-9812; assay: Cytotoxicity, lung bronchogenic MB-9812; details: concentration which inhibits 50% of cell growth
[9] = test system: colorectal adenocarcinoma SW480; assay: Cytotoxicity, colorectal adenocarcinoma SW480; details: for ED50 Cytotoxicity, Human Colon SW480: sw480 cells
[10] = Anti-inflammatory activity, carrageenan paw; details: CF1 Mice, 20 mg/kg × 2 (table head; b1373: 8 mg/kg i.p. 3 hours and 30 minutes before carrageenan)
[11] = test system: Ehrlich ascites carcinoma; assay: in vivo Ehrlich ascites carcinoma screen; details: 20 mg/kg/day I.P., CF1 male mice

CCOC(=O)C(C)(C)Oc1ccc(Cl)cc1
Serum Cholesterol Day 9 ([1]; 150 Mg/kg/day): 88 ± 7% of Control
Serum Cholesterol Day 16 ([1]; 150 Mg/kg/day): 86 ± 6% of Control
Serum Triglycerides Day 16 ([1]; 150 Mg/kg/day): 75 ± 5% of Control
Serum Cholesterol Day 7 [2]: 89 ± 7% of Control
Serum Cholesterol Day 14 [2]: 86 ± 5% of Control
Serum Triglycerides Day 7 [2]: 83 ± 6% of Control
Serum Triglycerides Day 14 [2]: 74 ± 7% of Control

N#C[BH2-][NH+]1CCNCC1
ED50 Cytotoxicity, P388 Lymphocytic Leukemia [3]: 9.93 µg/mL (≈ 79.5 µM)
ED50 Cytotoxicity, Human Glioma (glioma EH 118 MG): 3.98 µg/mL (≈ 31.8 µM)
Serum Cholesterol Day 9 ([1]; 8 Mg/kg/day): 66 ± 5% of Control
Serum Cholesterol Day 16 ([1]; 8 Mg/kg/day): 66 ± 6% of Control
Serum Triglycerides Day 16 ([1]; 8 Mg/kg/day): 69 ± 5% of Control
ED50 Cytotoxicity, Human lymphocyte Tmolt3 [4]: 1.08 µg/mL (≈ 8.64 µM)
ED50 Cytotoxicity, Human KB [5]: 7.42 µg/mL (≈ 59.4 µM)
ED50 Cytotoxicity, Human HeLa-S^3 [6]: 2.56 µg/mL (≈ 20.5 µM)
ED50 Cytotoxicity, Human Osteo-Sarcoma (osteosarcoma TE418): 3.64 µg/mL (≈ 29.1 µM)
ED50 Cytotoxicity, L1210 Lymphoid Leukemia [7]: 3.67 µg/mL (≈ 29.4 µM)
T/C%, in vivo Lewis lung carcinoma (Lewis lung carcinoma): inactive
ED50 Cytotoxicity, Human Lung Bronchogenic [8]: 6.02 µg/mL (≈ 48.2 µM)
ED50 Cytotoxicity, Human Colon SW480 [9]: 7.21 µg/mL (≈ 57.7 µM)
% of Control, anti-inflammatory (paw weight increase) [10]: 83 % of Control

Nc1ccn([C@@H]2O[C@H](CO)[C@@H](O)[C@@H]2O)c(=O)n1
ED50 Cytotoxicity, P388 Lymphocytic Leukemia [3]: 4.06 µg/mL (≈ 16.7 µM)
ED50 Cytotoxicity, Human Glioma (glioma EH 118 MG): 1.88 µg/mL (≈ 7.73 µM)
ED50 Cytotoxicity, Human lymphocyte Tmolt3 [4]: 2.67 µg/mL (≈ 11 µM)
ED50 Cytotoxicity, Human KB [5]: 2.54 µg/mL (≈ 10.4 µM)
ED50 Cytotoxicity, Human HeLa-S^3 [6]: 2.13 µg/mL (≈ 8.76 µM)
ED50 Cytotoxicity, L1210 Lymphoid Leukemia [7]: 2.76 µg/mL (≈ 11.3 µM)
ED50 Cytotoxicity, Human Lung Bronchogenic [8]: 4.60 µg/mL (≈ 18.9 µM)
ED50 Cytotoxicity, Human Colon SW480 [9]: 3.42 µg/mL (≈ 14.1 µM)

O=c1[nH]cc(F)c(=O)[nH]1
ED50 Cytotoxicity, Human Glioma (glioma EH 118 MG): 1.28 µg/mL (≈ 9.84 µM)
ED50 Cytotoxicity, Human lymphocyte Tmolt3 [4]: 2.14 µg/mL (≈ 16.5 µM)
ED50 Cytotoxicity, Human KB [5]: 1.25 µg/mL (≈ 9.61 µM)
ED50 Cytotoxicity, Human HeLa-S^3 [6]: 2.47 µg/mL (≈ 19 µM)
ED50 Cytotoxicity, L1210 Lymphoid Leukemia [7]: 1.41 µg/mL (≈ 10.8 µM)
ED50 Cytotoxicity, Human Colon SW480 [9]: 3.09 µg/mL (≈ 23.8 µM)

NC1(C(=O)O)CCCC1
ED50 Cytotoxicity, Human Glioma (glioma EH 118 MG): 5.89 µg/mL (≈ 45.6 µM)
ED50 Cytotoxicity, Human lymphocyte Tmolt3 [4]: 2.38 µg/mL (≈ 18.4 µM)
ED50 Cytotoxicity, Human KB [5]: 5.71 µg/mL (≈ 44.2 µM)
ED50 Cytotoxicity, Human HeLa-S^3 [6]: 2.38 µg/mL (≈ 18.4 µM)
ED50 Cytotoxicity, Human Osteo-Sarcoma (osteosarcoma TE418): 6.18 µg/mL (≈ 47.8 µM)
ED50 Cytotoxicity, L1210 Lymphoid Leukemia [7]: 3.08 µg/mL (≈ 23.8 µM)
ED50 Cytotoxicity, Human Lung Bronchogenic [8]: 4.36 µg/mL (≈ 33.8 µM)
ED50 Cytotoxicity, Human Colon SW480 [9]: 3.81 µg/mL (≈ 29.5 µM)

C[N+]1([BH2-]C#N)CCOCC1
ED50 Cytotoxicity, P388 Lymphocytic Leukemia [3]: 3.64 µg/mL (≈ 26 µM)
activity in the murine P388 lymphocytic screen (in words) ([3]; text summary of Table 4): active
ED50 Cytotoxicity, Human Glioma (glioma EH 118 MG): 2.57 µg/mL (≈ 18.4 µM)
inhibition of growth, in vivo Ehrlich ascites carcinoma [11]: 100%
Serum Cholesterol Day 9 ([1]; 5 Mg/kg/day): 84 ± 7% of Control
Serum Cholesterol Day 16 ([1]; 5 Mg/kg/day): 73 ± 8% of Control
Serum Triglycerides Day 16 ([1]; 5 Mg/kg/day): 95 ± 11% of Control
ED50 Cytotoxicity, Human lymphocyte Tmolt3 [4]: 1.63 µg/mL (≈ 11.6 µM)
ED50 Cytotoxicity, Human KB [5]: 6.39 µg/mL (≈ 45.6 µM)
ED50 Cytotoxicity, Human HeLa-S^3 [6]: 2.30 µg/mL (≈ 16.4 µM)
ED50 Cytotoxicity, Human Osteo-Sarcoma (osteosarcoma TE418): 6.24 µg/mL (≈ 44.6 µM)
ED50 Cytotoxicity, L1210 Lymphoid Leukemia [7]: 4.06 µg/mL (≈ 29 µM)
ED50 Cytotoxicity, Human Lung Bronchogenic [8]: 5.37 µg/mL (≈ 38.4 µM)
ED50 Cytotoxicity, Human Colon SW480 [9]: 6.22 µg/mL (≈ 44.4 µM)
% of Control, anti-inflammatory (paw weight increase) [10]: 91 % of Control

C[N+](C)(C)[BH2-]C(=O)n1ccnc1
ED50 Cytotoxicity, P388 Lymphocytic Leukemia [3]: 4.88 µg/mL (≈ 29.2 µM)
ED50 Cytotoxicity, Human Glioma (glioma EH 118 MG): 0.472 µg/mL (≈ 2.83 µM)
inhibition of growth, in vivo Ehrlich ascites carcinoma [11]: 71%
Serum Cholesterol Day 9 ([1]; 8 Mg/kg/day): 72 ± 7% of Control
Serum Cholesterol Day 16 ([1]; 8 Mg/kg/day): 68 ± 5% of Control
Serum Triglycerides Day 16 ([1]; 8 Mg/kg/day): 57 ± 5% of Control
serum triglyceride levels lowered ([1]; doses of Table 6): 43%
ED50 Cytotoxicity, Human lymphocyte Tmolt3 [4]: 2.17 µg/mL (≈ 13 µM)
ED50 Cytotoxicity, Human KB [5]: 1.85 µg/mL (≈ 11.1 µM)
activity in the KB nasopharynx screen (in words) ([5]; text summary of Table 4): good activity
ED50 Cytotoxicity, Human HeLa-S^3 [6]: 2.46 µg/mL (≈ 14.7 µM)
ED50 Cytotoxicity, Human Osteo-Sarcoma (osteosarcoma TE418): 1.92 µg/mL (≈ 11.5 µM)
inhibition of growth of human osteosarcoma (in words) (osteosarcoma TE418; text summary of Table 4): significantly inhibited
ED50 Cytotoxicity, L1210 Lymphoid Leukemia [7]: 1.78 µg/mL (≈ 10.7 µM)
ED50 Cytotoxicity, Human Lung Bronchogenic [8]: 1.28 µg/mL (≈ 7.66 µM)
ED50 Cytotoxicity, Human Colon SW480 [9]: 1.69 µg/mL (≈ 10.1 µM)
activity against human adenocarcinoma colorectal SW480 growth (in words) ([9]; text summary of Table 4): showed activity
% of Control, anti-inflammatory (paw weight increase) [10]: 86 % of Control
